The target of this test is GLP1R (UniProt P43220). The test can be described thus: cell-based or functional assay.

In turn, Ex4-Cys40-FA1 (peptide) gave an Activity of 0.14 nM.
